Source: ChEMBL document CHEMBL1156120, “18F stilbenes and styrylpyridines for PET imaging of A beta plaques in Alzheimer's disease: a miniperspective” (J Med Chem, 2010)

By UniProt entry, the sequences of proteins in these tests, tags left out.
UniProt P05067, whole entry: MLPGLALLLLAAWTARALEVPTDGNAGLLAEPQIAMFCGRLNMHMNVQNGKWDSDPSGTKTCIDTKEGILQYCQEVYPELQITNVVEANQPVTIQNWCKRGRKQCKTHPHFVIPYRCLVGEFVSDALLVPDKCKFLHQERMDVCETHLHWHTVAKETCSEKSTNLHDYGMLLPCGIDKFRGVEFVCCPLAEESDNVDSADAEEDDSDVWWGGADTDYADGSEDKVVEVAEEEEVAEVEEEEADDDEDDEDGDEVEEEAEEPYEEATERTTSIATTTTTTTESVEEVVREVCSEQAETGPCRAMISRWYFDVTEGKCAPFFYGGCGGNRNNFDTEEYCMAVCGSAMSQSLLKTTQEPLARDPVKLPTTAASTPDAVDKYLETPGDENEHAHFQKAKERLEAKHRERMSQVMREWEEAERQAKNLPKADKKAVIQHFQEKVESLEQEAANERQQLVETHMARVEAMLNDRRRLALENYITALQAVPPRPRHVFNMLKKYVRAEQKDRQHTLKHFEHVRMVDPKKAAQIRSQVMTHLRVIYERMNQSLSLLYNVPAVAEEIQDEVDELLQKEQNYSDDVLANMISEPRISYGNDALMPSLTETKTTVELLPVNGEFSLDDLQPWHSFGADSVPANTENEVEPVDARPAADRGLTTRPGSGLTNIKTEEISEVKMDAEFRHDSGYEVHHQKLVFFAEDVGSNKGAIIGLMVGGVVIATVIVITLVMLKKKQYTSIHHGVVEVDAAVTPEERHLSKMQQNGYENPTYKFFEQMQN

Target: Amyloid-beta precursor protein (Homo sapiens, UniProt P05067)
Assay: Binding affinity to Beta amyloid aggregates in Alzheimer's disease patient brain by competitive binding assay
In short: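 Competition binding against ¹⁸F-AV-45 (0.04–0.06 nM, diluted in PBS) in postmortem AD brain homogenate (20–25 µg per assay). Competitors were serially diluted 10⁻⁵–10⁻¹⁰ M in PBS with 0.1% bovine serum albumin, in a final volume of 0.5 mL. Inhibition constant (Ki) derived from displacement.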

Cc1ccc2c(c1)sc(-c1ccc(N(C)C)cc1)[n+]2C [THIOFLAVIN T] showed a Ki greater than 1000 nM.
